Results reported in publication PMC3857224, “Inhibition of DNA Glycosylases via Small Molecule Purine Analogs” (PLoS ONE, 2013).

Chains of the proteins cited; added tags and fusions are not shown.
UniProt Q96FI4, whole entry: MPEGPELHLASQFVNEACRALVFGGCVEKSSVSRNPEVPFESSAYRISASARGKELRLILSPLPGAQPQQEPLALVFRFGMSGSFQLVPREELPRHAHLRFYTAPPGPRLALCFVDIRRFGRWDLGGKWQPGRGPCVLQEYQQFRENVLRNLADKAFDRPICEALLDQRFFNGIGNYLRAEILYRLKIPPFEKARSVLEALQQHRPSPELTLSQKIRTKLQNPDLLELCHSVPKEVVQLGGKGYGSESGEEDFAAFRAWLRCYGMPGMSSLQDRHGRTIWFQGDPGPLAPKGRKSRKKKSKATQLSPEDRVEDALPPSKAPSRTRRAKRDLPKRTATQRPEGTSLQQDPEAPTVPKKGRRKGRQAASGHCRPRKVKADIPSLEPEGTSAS

Experiments:
NEIL1 [1] = target: T1, NEIL1 (Homo sapiens, UniProt Q96FI4); assay: gel-based incision assay of oligodeoxynucleotides containing site-specific base lesions; type: biochemical; conditions: read-out: Gel Assay IC50; polyacrylamide gel, reaction quenched at 20 min
NEIL1 [2] = target: T1, NEIL1; assay: qHTS fluorogenic glycosylase/AP lyase assay, 1536-well, Sp/Gh substrate; type: biochemical; conditions: read-out: qHTS IC50, 5 concentrations
Experimental: The fluorogenic assay was miniaturized to 4 µL in 1536-well black solid plates by optimization of the enzyme and Sp/Gh substrate concentrations. Briefly, 3 µL of 25 nM NEIL1 were dispensed into each well of a 1536-well plate (except buffer in columns 3 and 4 as a negative control). Compounds (DMSO solutions) and control (DMSO only) (23 nL) were transferred to the plate via Kalypsys pintool. The plate was incubated for 15 min at room temperature, and then 1 µL of the Sp/Gh-containing DNA substrate (75 nM final concentration) was added to start the reaction. The plate was immediately transferred into the ViewLux reader for the kinetic fluorescence read. Initial rate data were normalized against uninhibited and no-enzyme controls and the resulting percent activities as a function of compound concentration were fitted using the Hill equation.
Having established the general principle for a glycosylase screening assay, further assay development was undertaken to enable HTS in which the reaction volumes were reduced by 5-fold to a total of 4 µL. Initially, the library of pharmacologically active compounds (LOPAC^1280) was screened for inhibitors of NEIL1 as a determination of the feasibility of this high-throughput method. […] All compounds were screened at 5 different concentrations that allowed for the initial estimation of inhibitory potency (IC50) values, as well as an evaluation of the shape of the response curves. In addition to the anticipated inhibitors (known DNA intercalators, such as ellipticine (IC50 = 2 µM)) and other small molecules that have been previously established to be promiscuous inhibitors (such as aurintricarboxylic acid (IC50<1 µM)), one interesting hit from this screen was CGP-74514A (NCGC ID is NCGC00015229) (Figure 5A). CGP-74514A is a known small molecule inhibitor of Cdk1 in which the structure of this molecule is based on a purine ring backbone.

Row | Structure (SMILES) | IC50 (NEIL1 [1]) | IC50 (NEIL1 [2])
1 | Fc1cccc(C=NNc2ncnc3[nH]cnc23)c1 | > 50 µM | 8.9 µM
2 | CCn1cnc2c(Nc3ccc(CCC(=O)N=C(N)N)cc3)nc(C#N)nc21 | > 50 µM | 28.2 µM
3 | Clc1ccc(C=NNc2ncnc3[nH]cnc23)cc1 | > 50 µM | 28.2 µM
